Measurements: patent US11021511B2, “Cyclic dinucleotides as sting agonists” (Janssen Biotech, Inc., priority 2017, dated 2021)

System: THP1-Blue ISG cells
Assay: Human interferon-β induction assay
Settings: total cumulative IFN-β induction over the dose range tested (0.78 to 50 μM) in THP-1 Blue cells; tested form: Na salt

SMILES: COC1C2COP(=O)(O)OC3C4OCC3(COP(=O)(O)OC1C(n1cnc3c(=O)[nH]c(N)nc31)O2)OC4n1cnc2c(N)ncnc21 (stereo not shown)
- human IFN-β (ranking value): 821
